These are literature values, as cited in US6693094B2, “Biguanide and sulfonylurea formulations for the prevention and treatment of insulin resistance and type 2 diabetes mellitus” (Chrono RX LLC, priority 2001, dated 2004).

For the data set the following is noted: in vivo.

For the compound `CN(C)C(=N)N=C(N)N` [Metformin, metformin], the excretion entry is “excreted unchanged in the urine”.
